# Apparent affinities of Ab-14 variants for a coronavirus HR2 peptide

The measurements come from Li et al. 2023 (doi:10.1038/s41467-023-39022-2) through the FLAb antibody collection.

Target peptide (SARS-CoV-2 spike, HR2 region): PDVDLGDISGINAS

Parent: Ab-14, a human scFv built as VH, three GGGGS repeats, VL. Only the CDRs of the light chain vary.
VH: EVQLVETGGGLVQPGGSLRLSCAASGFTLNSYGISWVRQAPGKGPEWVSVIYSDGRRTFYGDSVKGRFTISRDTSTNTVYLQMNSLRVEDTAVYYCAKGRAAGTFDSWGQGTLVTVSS
VL: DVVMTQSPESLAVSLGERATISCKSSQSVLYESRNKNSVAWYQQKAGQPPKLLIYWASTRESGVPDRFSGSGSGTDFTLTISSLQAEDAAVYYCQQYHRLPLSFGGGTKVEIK

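Phage display of a naive human antibody library on the peptide gave the parent. The variants were designed computationally from a first round of random CDR variants and then made and measured. Several design methods are mixed in this list. AlphaSeq pools MATa yeast showing the antibodies with MATalpha yeast showing the peptide. Mating (16 h, 30 °C) was followed by selection of diploids and sequencing of their barcodes. Scores were corrected for input abundance and mapped to Kd with protein pairs of known affinity run in the same pool. Mating was done six times.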

Variants are written as CDR1, CDR2 and CDR3 of the light chain (limits as in the source). Parent: KSSQSVLYESRNKNSVA, WASTRES, QQYHRLPLS. Affinities are written as log10 Kd with Kd in nM; a lower number is a better binder. Averages over replicates are reported, and they cover detected replicates only. "no signal" means that the variant was in the library but no mating with the target was seen in any replicate; the authors take this as a sign of poor binding, and no number exists. Background: pairings of all light chain designs with three empty control strains gave a value in 4% of cases (median 2.64, 5th percentile 1.59). Values in that range, when seen in few replicates, are hard to tell from nonspecific mating.

CDR-L1 | CDR-L2 | CDR-L3 | log10 Kd (nM), mean | seen in
SLVQKADYMDSERNNIA | NMDLRNE | QQYFHLPLT | 2.33 | 6/6
KSSQSVLWESRNFNSVA | QASTRES | QQYHFLPLS | 2.19 | 5/6
KFEQSQGYESRNKNSVA | NASTRES | QQYHRLPLS | -0.36 | 6/6
KSSQSVLYESTNKNSVA | WASTRES | QQYRRLPLS | 2.00 | 5/6
KSSQSHLYESRNKNSVA | WASTRES | QQYHFLPLS | 1.98 | 6/6
KVQGSQLYESRNKNAVA | NASTRCD | QQYHRLPLS | -0.34 | 6/6
ALTNEPESVNHHKNNVA | HTSKRCM | QQYARLPLS | 1.24 | 6/6
KLQQSELYESRNVNSVA | DASKRES | QQYHRLPLS | -0.17 | 6/6
SMRAVGCDMQRNHSNIA | DATQIED | QQYVMLPLS | 0.86 | 6/6
KSSGSVMGEDMNKNSVA | HASQRES | QQYHRLPLM | 0.25 | 6/6
QVFFQLFEQGNRSNPIA | HESMRET | QQYAYLPLT | no signal | 0/6
KSSQSVLYESRNKNSVA | AASTRES | QQYHRLPLI | 0.58 | 6/6
MISDLTMYGSRNKNSVA | DSSTRGN | QQYHRLPLS | -0.17 | 6/6
KSQQSVLYASRNKNSVA | WASTRES | QQYHRLPLS | 2.54 | 1/6
KISQSVKYESRNKNSVA | WASTRES | QQYHVLPLL | 1.00 | 5/6
KISQSVLYESRNKNSVA | SASTRSS | QQYHRLPLS | -0.22 | 6/6
VSSQSNLYESNNKNSVA | NASTRES | QQYHRLPLS | -0.10 | 6/6
KSSQSVLYESRNHNSVA | TASTRES | QQYHRLPLS | 0.89 | 6/6
KWQKDSLFMGQYMNNIA | NTSLRTM | QQYYRLPLT | 0.05 | 6/6
KLSQSVLYEMRVKNSVA | EAVTRES | QQYHRLPLS | 0.13 | 6/6
KSSQKVLGESRNKNSVA | WASTRES | QQYNRLPLS | 2.32 | 6/6
TIGQMFNGESRNRNSVA | QASTRNS | QSYDRLPLS | 0.22 | 6/6
KQSQEMLYESRNKNSVA | DASTRES | QQYHRLPLS | -0.30 | 6/6
MLSEVLHMLGVMKNSIA | DLVLRAN | QQYHRLPLM | -0.10 | 6/6
KSSQSVLYESRNSNSVA | WASTRES | QQYHYLPLS | 3.48 | 2/6
KVSQSVLYESRNKNSVA | EASTRES | QQYHRLPLI | -0.08 | 6/6
KASQSEPYEDRNKNSVA | NASYRCS | QQYHRLPLS | 0.44 | 6/6
KSQQSVWYESRMKNSVA | NASLRCS | QQYHRLPLS | 1.22 | 6/6
SMGWAHENGDNKMNNIA | DETHLAY | QQYSRLPIT | 0.49 | 6/6
KLDPSDLGESRNKNSVA | QASQREI | QQYHRLPLS | 0.09 | 6/6
KSSQSVLEESRNKNSVA | WASTRES | QNYHRLPLS | 1.09 | 2/6
KLMQSDLYESRNKNSVA | HASLRED | QQYHRLPLS | 0.64 | 6/6
KSSQRVLYESRNKNSVA | WASTVES | QQYHRLPLS | no signal | 0/6
KSSISYLYESANKNSVA | EASTRES | QQYHRLPLS | 0.61 | 6/6
QVFFQLFEQGMRSQPIA | GTSMRET | QQYARLPLI | 1.23 | 6/6
TISGMANYESTNKNSVA | ELTMRGQ | QQYERLPLS | 1.65 | 6/6
KLTQTMRFEQKKKNNIA | EVSERSK | QQYYRLPLA | 1.44 | 5/6
KLYFNVGTMSLNKQSIA | DMERRED | QQYHRLPLS | 1.00 | 6/6
KSSQSVLYESRNKNSVA | WASTRES | QWYHVLPLS | no signal | 0/6
KASQSEPYEDRNFNSVA | NASYRCS | QQYHRLPLS | 0.65 | 6/6
KISQSWGYESRNKNSVA | GASTRES | QQYHRLPLS | 0.66 | 6/6
KLSMSVMMEQRNKNSVA | SANTRME | QQYHRLPLS | -0.10 | 6/6
KSSQSVLYESRNKNDVA | WASTREF | QQYHRLPLS | no signal | 0/6
KLQQSVLYESRNKNSVA | DASTRCS | QQYHRLPLS | 0.73 | 6/6
HMSFLTLQGQRHRNAVA | QMTTREN | QQYDRLPLI | 1.43 | 6/6
KSSQGYHYESRNKNSVA | GASTRES | QQYHRLPLS | 0.40 | 6/6
KSSQSVLYEEPNKNSVA | WASTRES | QQYHRLPLS | 1.52 | 3/6
HVSNLLTDEMYREYNIA | ETSHVEE | QQYERLPLI | 1.42 | 6/6
KLEISVMQESRNKNSVA | NASTREV | QQYHRLPLS | -0.47 | 6/6
RMNKHMSGATEAKNSMA | GVEHRAN | QQYDRLPLS | 0.47 | 6/6
KVSQSVNVGTKNKNSLA | EMSTREF | QDYHRLPLS | 0.85 | 6/6
KSSQSVLYESRYKNSVA | DASTRES | QQYHRLPLS | 0.79 | 6/6
KSKQSELYESRNKNSVA | WASTRES | QQYHRLPLS | 1.52 | 5/6
MISDLTMYGSHNKNSVA | DLSTRGS | QQYHRLPLS | 0.22 | 6/6
KLSMVTGHQLMSKDNVA | EMVTREN | QQYNRLPLS | 0.82 | 6/6
KMSQSVLYESRNKNSVA | WASLRES | QQYHRLPLS | 0.29 | 6/6
HINEVDPGVKNKYNNIA | DISELAI | QQYFQLPLS | 0.38 | 6/6
KSSQSVMPESRNFNSVA | WASTRES | QQYHRLPLS | 1.84 | 6/6
MISDLTMYGSRNMNSVA | DLSTRGS | QQYHRLPLS | 0.14 | 6/6
KISQSVEYESRDKNSVA | NASTREQ | QQYHRLPLS | 1.06 | 6/6
KLWAYFQGLEQKMQNVA | DGSYRST | QQYDRLPLS | 1.19 | 5/6
KIEDSNSWHLRGTSAVA | QASTRAA | QQYQRLPLL | 0.39 | 6/6
KMSQSALYESRNKNSVA | WASTRES | QQYHRLPLS | 0.77 | 6/6
KSSKSVLYESVNKNSVA | GAYLRED | QQYHRLPLS | 0.66 | 6/6
KLYQSVLYESRNKNSVA | QASTRES | QQYHRLPLS | -0.12 | 6/6
NIRGVEFESAMMGNAVA | DMSAVMA | QQYFRLPLH | 1.28 | 6/6
KSSQSVLYESRNKNSVA | WASTRFS | QQYHRLPLS | 1.20 | 5/6
KLSQSVLYEQRNKNSVA | DASTRES | QQYHRLPLS | -0.54 | 6/6
HLLQTVMYGQTRKNSVA | HAVTREN | QQYHRLPLM | 1.52 | 5/6
MITAMLRGVGRDKNSVA | NAQTRES | QHYNRLPLS | 1.91 | 5/6
KSSQSVLYESRNKNHVA | WATTRES | QQYHRLPLS | no signal | 0/6

In the paper, a design with two or fewer of six values counts as a poor binder. Values of this round are not directly comparable with the first-round values of the same sequences.